One substance from patent publication US11952334B2, “Cocrystals of ubiquinone and compositions comprising them” (CENTER FOR INTELLIGENT RESEARCH IN CRYSTAL ENGINEERING, S.L., priority 2018, dated 2024) can be followed below.

The series can be described thus: Particle size analysis (granulometry) by laser dispersion. The series is classed as physicochemical. As to conditions: dispersing fluid silicone oil. The procedure:
Particle size can be determined, for example by laser dispersion on a Beckman Coulter LS13320 provided with a MLM (Micro Liquid Module) (measure range: 0.4 to 2000 μm; optic model: Fraunhofer.rdf, PIDS included).
Particle size analysis (granulometry) was performed by laser dispersion on a Beckman Coulter LS13320 provided with a MLM (Micro Liquid Module) (measure range: 0.4 to 2000 μm; optic model: Fraunhofer.rdf, PIDS included).
In a beaker about 10 ml of silicone oil and a microspoon of sample were placed. The sample was homogeneized by pipetting it repeatedly with a pasteurized pipette and by subjecting it to ultrasonic treatment (30 KHz; 200 W). The module was cleaned and filled with silicone oil as a dispersing fluid. Before each analysis, an optical alignment of the laser and a measure of the instrument noise was made.

In the case of “Ubiquinone:resorcinol cocrystal (2:1) [Compound P57-V]”, the D10 was 2.06 μm, the D50 worked out at 10.9 μm and the D90 amounted to 32.2 μm.
